Values quoted from earlier work, collected in patent publication US10213418B2, “Therapeutic uses of berberine formulations” (TWi Biotechnology, Inc., priority 2013, dated 2019).

Conditions: in vivo; cited from earlier work

cetuximab: EGFR inhibitor
papulopustular rash reported: 83 % of patients
